Assay [1] addresses Neuronal acetylcholine receptor subunit alpha-7 (Mus musculus, UniProt P49582). Briefly: In vitro Binding affinity towards alpha-7 nAChR was determined.
For assay [2], the target named is Neuronal acetylcholine receptor subunit alpha-7 (Mus musculus) (UniProt P49582). The assay can be described thus: Functional activity is expressed as percent efficacy for alpha-7 nAChR.

By UniProt entry, the sequences of proteins in these tests, tags left out.
UniProt P49582, whole entry: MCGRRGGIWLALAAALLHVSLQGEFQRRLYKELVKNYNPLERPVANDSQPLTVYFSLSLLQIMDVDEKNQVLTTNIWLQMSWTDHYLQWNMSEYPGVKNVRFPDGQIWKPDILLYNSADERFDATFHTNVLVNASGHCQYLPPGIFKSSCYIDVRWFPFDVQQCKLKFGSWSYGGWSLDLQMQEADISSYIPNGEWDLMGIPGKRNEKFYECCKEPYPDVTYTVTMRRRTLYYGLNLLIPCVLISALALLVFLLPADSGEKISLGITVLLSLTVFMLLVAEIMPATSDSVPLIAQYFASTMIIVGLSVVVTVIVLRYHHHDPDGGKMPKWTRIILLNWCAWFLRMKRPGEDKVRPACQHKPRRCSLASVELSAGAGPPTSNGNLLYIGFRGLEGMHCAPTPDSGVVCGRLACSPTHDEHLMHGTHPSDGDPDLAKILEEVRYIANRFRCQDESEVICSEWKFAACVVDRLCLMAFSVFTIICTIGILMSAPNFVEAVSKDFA

As usually defined, the Ki is a measure of affinity in units of concentration, obtained from inhibition or displacement. A high value points to a looser hold on the target. Consider `CN1[C@@H]2CC[C@H]1C[C@@H](OC(=O)c1c[nH]c3ccccc13)C2` [TROPISETRON], for which the Ki in assay [1] turned out to be 6.9 nM. In addition, the Efficacy in assay [2] stood at 36%.

Source of the values: ChEMBL document CHEMBL1134160 (Bioorg Med Chem Lett, 2001).
